Test results: paper PMC3826719, “Impact of Polymorphic Variants on the Molecular Pharmacology of the Two-Agonist Conformations of the Human β1-Adrenoceptor” (PLoS ONE, 2013)

The chains behind the UniProt entries cited, without tags or fusion partners.
UniProt P08588, whole entry: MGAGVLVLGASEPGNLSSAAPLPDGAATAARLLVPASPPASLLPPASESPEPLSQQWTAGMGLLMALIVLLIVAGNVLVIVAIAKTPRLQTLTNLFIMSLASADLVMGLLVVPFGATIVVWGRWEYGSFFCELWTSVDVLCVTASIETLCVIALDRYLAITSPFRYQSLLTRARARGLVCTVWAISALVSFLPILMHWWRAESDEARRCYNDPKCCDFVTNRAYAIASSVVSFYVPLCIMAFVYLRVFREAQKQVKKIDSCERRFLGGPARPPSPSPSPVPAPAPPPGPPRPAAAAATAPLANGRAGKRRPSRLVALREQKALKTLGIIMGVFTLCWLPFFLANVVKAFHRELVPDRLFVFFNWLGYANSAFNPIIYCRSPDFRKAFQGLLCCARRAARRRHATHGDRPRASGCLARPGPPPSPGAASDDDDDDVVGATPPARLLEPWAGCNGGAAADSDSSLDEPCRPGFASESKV
UniProt P08588, whole entry S49G: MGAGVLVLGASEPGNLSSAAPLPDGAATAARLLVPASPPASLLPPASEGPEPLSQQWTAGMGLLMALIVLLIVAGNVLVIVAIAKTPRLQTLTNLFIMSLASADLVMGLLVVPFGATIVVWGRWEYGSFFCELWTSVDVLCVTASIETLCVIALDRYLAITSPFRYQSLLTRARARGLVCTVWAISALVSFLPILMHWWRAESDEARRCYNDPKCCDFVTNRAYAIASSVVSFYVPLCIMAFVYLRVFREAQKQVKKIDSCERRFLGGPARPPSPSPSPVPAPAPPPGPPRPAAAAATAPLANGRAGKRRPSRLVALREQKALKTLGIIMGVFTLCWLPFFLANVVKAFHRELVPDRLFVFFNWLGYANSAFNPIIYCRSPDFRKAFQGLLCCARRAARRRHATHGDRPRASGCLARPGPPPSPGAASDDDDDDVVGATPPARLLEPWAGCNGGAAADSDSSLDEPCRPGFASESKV
UniProt P08588, whole entry G389R: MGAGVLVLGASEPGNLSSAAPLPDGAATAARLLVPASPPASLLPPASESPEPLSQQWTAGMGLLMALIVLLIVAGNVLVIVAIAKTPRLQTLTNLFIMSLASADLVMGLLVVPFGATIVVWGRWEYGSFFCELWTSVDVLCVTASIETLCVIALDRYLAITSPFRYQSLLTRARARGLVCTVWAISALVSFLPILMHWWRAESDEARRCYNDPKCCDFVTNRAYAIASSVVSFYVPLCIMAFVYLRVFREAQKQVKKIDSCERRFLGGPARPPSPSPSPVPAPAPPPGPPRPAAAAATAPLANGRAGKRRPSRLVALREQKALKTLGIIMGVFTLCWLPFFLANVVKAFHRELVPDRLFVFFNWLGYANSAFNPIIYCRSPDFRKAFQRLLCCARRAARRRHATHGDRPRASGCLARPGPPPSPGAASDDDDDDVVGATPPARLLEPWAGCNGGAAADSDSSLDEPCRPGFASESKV

Assays:
[1] = molecular target: T1, human wildtype β1-adrenoceptor (Ser49/Gly389) (Homo sapiens, UniProt P08588); assay: cell-based; conditions: Log KD
[2] = molecular target: T2, human β1-adrenoceptor polymorphic variant Gly49/Gly389 (Homo sapiens, UniProt P08588, S49G); assay: cell-based; conditions: Log KD
[3] = molecular target: T3, human β1-adrenoceptor polymorphic variant Ser49/Arg389 (Homo sapiens, UniProt P08588, G389R); assay: cell-based; conditions: Log KD
[4] = molecular target: T1, human wildtype β1-adrenoceptor (Ser49/Gly389); assay: 3H-cAMP accumulation, wildtype; conditions: Log EC50, 3H-cAMP accumulation, main stable WT Ser49/Gly389 cell line
[5] = molecular target: T2, human β1-adrenoceptor polymorphic variant Gly49/Gly389; conditions: Log EC50, 3H-cAMP accumulation, main stable Gly49/Gly389 cell line
[6] = molecular target: T3, human β1-adrenoceptor polymorphic variant Ser49/Arg389; conditions: Log EC50, 3H-cAMP accumulation, main stable Ser49/Arg389 cell line

Kd ([1]; competition with 3H-CGP 12177, WT transiently transfected populations): 20.9 µM
Kd ([1]; competition with 3H-CGP 12177, additional stable WT cell line T3): 23.4 µM
Kd ([1]; competition with 3H-CGP 12177, additional stable WT cell line T88): 14.1 µM
Kd ([1]; competition with 3H-CGP 12177, whole cells, main stable CHO cell line WT (Ser49/Gly389)): 11 µM
Kd ([2]; competition with 3H-CGP 12177, Gly49/Gly389 transiently transfected populations): 25.7 µM
Kd ([2]; competition with 3H-CGP 12177, additional stable Gly49/Gly389 cell line V6): 7.76 µM
Kd ([2]; competition with 3H-CGP 12177, additional stable Gly49/Gly389 cell line V87): 10.2 µM
Kd ([2]; competition with 3H-CGP 12177, whole cells, main stable CHO cell line Gly49/Gly389): 11 µM
Kd ([3]; competition with 3H-CGP 12177, Ser49/Arg389 transiently transfected populations): 28.8 µM
Kd ([3]; competition with 3H-CGP 12177, additional stable Ser49/Arg389 cell line W81): 2.88 µM
Kd ([3]; competition with 3H-CGP 12177, additional stable Ser49/Arg389 cell line W93): 11.2 µM
Kd ([3]; competition with 3H-CGP 12177, whole cells, main stable CHO cell line Ser49/Arg389): 4.68 µM
EC50 [4]: 0.209 µM
EC50 [5]: 0.257 µM
EC50 [6]: 0.12 µM
Structure (SMILES): CNC[C@H](O)c1ccc(O)c(O)c1 [Adrenaline]
